## Membrane permeability of cyclic peptides

Values of Furukawa et al. 2016, doi:10.1021/acs.jmedchem.6b01246, as listed in CycPeptMPDB.

PAMPA measures passive passage through an artificial lipid membrane.
P is given in units of 10^-6 cm/s (from log10 values with two decimals); larger means faster passage.

| SMILES | PAMPA (10^-6 cm/s) |
|---|---|
| CCCC[C@@H]1NC(=O)[C@H](CC(C)C)N(C)C(=O)CN(CCOC)C(=O)[C@H](Cc2ccccc2)NC(=O)CN(Cc2ccc3c(c2)OCO3)C(=O)[C@H]2CCCN2C1=O | 4.4 |
| CCCC[C@@H]1NC(=O)[C@H](CC(C)C)N(C)C(=O)CN(Cc2ccccc2)C(=O)[C@H](Cc2ccc3ccccc3c2)NC(=O)CN(CCCOC(C)C)C(=O)[C@H]2CCCN2C1=O | 0.28 |
| CCCC[C@@H]1NC(=O)[C@H](CC(C)C)N(C)C(=O)CN(CCc2cccnc2)C(=O)[C@H](CC(C)C)NC(=O)CN(Cc2ccc(Cl)cc2)C(=O)[C@H]2CCCN2C1=O | 4.4 |
| CCCC[C@@H]1NC(=O)[C@H](CC(C)C)N(C)C(=O)CN(CCc2cccnc2)C(=O)[C@H](C)NC(=O)CN(Cc2cc(CC(C)C)on2)C(=O)[C@H]2CCCN2C1=O | 1.4 |
| CCCC[C@@H]1NC(=O)[C@H](CC(C)C)N(C)C(=O)CN(CC2CCCCC2)C(=O)[C@H](Cc2ccccc2)NC(=O)CN(CCCCc2ccccc2)C(=O)[C@H]2CCCN2C1=O | 0.003 |
| CCCC[C@@H]1NC(=O)[C@H](CC(C)C)N(C)C(=O)CN(CCOc2ccccc2)C(=O)[C@H](Cc2ccccc2)NC(=O)CN(Cc2ccc(Cl)cc2)C(=O)[C@H]2CCCN2C1=O | 0.0044 |
| CCCC[C@@H]1NC(=O)[C@H](CC(C)C)N(C)C(=O)CN(CCOc2ccccc2)C(=O)[C@H](Cc2ccc3ccccc3c2)NC(=O)CN(CCC)C(=O)[C@H]2CCCN2C1=O | 0.051 |
| CCCC[C@@H]1NC(=O)[C@H](CC(C)C)N(C)C(=O)CN(CCCc2ccccc2)C(=O)[C@H](Cc2ccc3ccccc3c2)NC(=O)CN(CCN2CCOCC2)C(=O)[C@H]2CCCN2C1=O | 0.43 |
| CCCC[C@@H]1NC(=O)[C@H](CC(C)C)N(C)C(=O)CN(CC2CCCCC2)C(=O)[C@H](CC(C)C)NC(=O)CN(CCN2CCOCC2)C(=O)[C@H]2CCCN2C1=O | 6.6 |
| CCCC[C@@H]1NC(=O)[C@H](CC(C)C)N(C)C(=O)CN(CCc2cccnc2)C(=O)[C@H](C)NC(=O)CN(Cc2ccc3c(c2)OCO3)C(=O)[C@H]2CCCN2C1=O | 0.54 |
| CCCC[C@@H]1NC(=O)[C@H](CC(C)C)N(C)C(=O)CN(CC2CCOCC2)C(=O)[C@H](Cc2ccc3ccccc3c2)NC(=O)CN(CCN2CCOCC2)C(=O)[C@H]2CCCN2C1=O | 1.4 |
| CCCC[C@@H]1NC(=O)[C@H](CC(C)C)N(C)C(=O)CN(CCCc2ccccc2)C(=O)[C@H](Cc2ccccc2)NC(=O)CN(CCC)C(=O)[C@H]2CCCN2C1=O | 0.91 |
| CCCC[C@@H]1NC(=O)[C@H](CC(C)C)N(C)C(=O)CN(CCc2cccnc2)C(=O)[C@H](CC(C)C)NC(=O)CN(CCC)C(=O)[C@H]2CCCN2C1=O | 2.4 |

2 of these entries, quoted again:

{"smiles": "CCCC[C@@H]1NC(=O)[C@H](CC(C)C)N(C)C(=O)CN(CCc2cccnc2)C(=O)[C@H](CC(C)C)NC(=O)CN(Cc2ccc(Cl)cc2)C(=O)[C@H]2CCCN2C1=O", "PAMPA (10^-6 cm/s)": "4.4"}
{"smiles": "CCCC[C@@H]1NC(=O)[C@H](CC(C)C)N(C)C(=O)CN(CCCc2ccccc2)C(=O)[C@H](Cc2ccc3ccccc3c2)NC(=O)CN(CCN2CCOCC2)C(=O)[C@H]2CCCN2C1=O", "PAMPA (10^-6 cm/s)": "0.43"}

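Lipid, pH, incubation time, direction and concentration are not recorded in the data file. The list need not hold all peptides of the study. Entries at the database's floor value (log10 P of -10) are not listed.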